For this assay, the system named is N2O emission from soils. Nature of the assay: Greenhouse trial: N2O emission from potted field soil planted with summer wheat (Example 4). It counts as in vivo. As to conditions: fertilizer (ammonium nitrate 100 kg/ha) alone; sampled over 4 weeks; UTC 83.0.

Only a part of the results on these compounds is given; other tests are left out.

With ammonium nitrate, the “Mean mg N2O-N/m^2” value was 291.6 mg N2O-N/m^2.

The record behind these values is patent publication US8956996B2, “Method for reducing nitrous oxide emission from soils” (BASF SE, priority 2009, dated 2015).
